How the values were obtained:
[1] = system: P. berghei ookinete development
[2] = system: P. falciparum female gametocytes; experiment: P. falciparum female gametogenesis assay (Pf FGAA); conditions: 1: YES; 0: NO

Compound | Is compound selective in assay? Pb ODA active? [1] | Is compound selective in assay? Pf FGAA active? [2]
CCC(C)(C)n1c(C)cc2c3c(N)nc(N)nc3ccc21 [TCMDC-137307] | 0 (key: 1: YES; 0: NO) | –
COc1cc(Cn2ccc3c4c(N)nc(N)nc4ccc32)cc(OC)c1OC [TCMDC-137341] | 0 (key: 1: YES; 0: NO) | –
CC(C)(CN)c1nc(-c2ccc(Cl)c(O)c2)c(-c2ccncc2)[nH]1.Cl [TCMDC-140369] | 0 (key: 1: YES; 0: NO) | 0 (0: NO)
